# Data published in patent US20250376468A1, “PYRAZOLO[1,5-a]PYRIDINE DERIVATIVES FOR TREATING TRPM3-MEDIATED DISORDERS” (Katholieke Universiteit Leuven, priority 2022, published 2025).
# The chains behind the UniProt entries cited, without tags or fusion partners. Residues count along the entry.
# UniProt J9SQF3, 1-1709 isoform 12: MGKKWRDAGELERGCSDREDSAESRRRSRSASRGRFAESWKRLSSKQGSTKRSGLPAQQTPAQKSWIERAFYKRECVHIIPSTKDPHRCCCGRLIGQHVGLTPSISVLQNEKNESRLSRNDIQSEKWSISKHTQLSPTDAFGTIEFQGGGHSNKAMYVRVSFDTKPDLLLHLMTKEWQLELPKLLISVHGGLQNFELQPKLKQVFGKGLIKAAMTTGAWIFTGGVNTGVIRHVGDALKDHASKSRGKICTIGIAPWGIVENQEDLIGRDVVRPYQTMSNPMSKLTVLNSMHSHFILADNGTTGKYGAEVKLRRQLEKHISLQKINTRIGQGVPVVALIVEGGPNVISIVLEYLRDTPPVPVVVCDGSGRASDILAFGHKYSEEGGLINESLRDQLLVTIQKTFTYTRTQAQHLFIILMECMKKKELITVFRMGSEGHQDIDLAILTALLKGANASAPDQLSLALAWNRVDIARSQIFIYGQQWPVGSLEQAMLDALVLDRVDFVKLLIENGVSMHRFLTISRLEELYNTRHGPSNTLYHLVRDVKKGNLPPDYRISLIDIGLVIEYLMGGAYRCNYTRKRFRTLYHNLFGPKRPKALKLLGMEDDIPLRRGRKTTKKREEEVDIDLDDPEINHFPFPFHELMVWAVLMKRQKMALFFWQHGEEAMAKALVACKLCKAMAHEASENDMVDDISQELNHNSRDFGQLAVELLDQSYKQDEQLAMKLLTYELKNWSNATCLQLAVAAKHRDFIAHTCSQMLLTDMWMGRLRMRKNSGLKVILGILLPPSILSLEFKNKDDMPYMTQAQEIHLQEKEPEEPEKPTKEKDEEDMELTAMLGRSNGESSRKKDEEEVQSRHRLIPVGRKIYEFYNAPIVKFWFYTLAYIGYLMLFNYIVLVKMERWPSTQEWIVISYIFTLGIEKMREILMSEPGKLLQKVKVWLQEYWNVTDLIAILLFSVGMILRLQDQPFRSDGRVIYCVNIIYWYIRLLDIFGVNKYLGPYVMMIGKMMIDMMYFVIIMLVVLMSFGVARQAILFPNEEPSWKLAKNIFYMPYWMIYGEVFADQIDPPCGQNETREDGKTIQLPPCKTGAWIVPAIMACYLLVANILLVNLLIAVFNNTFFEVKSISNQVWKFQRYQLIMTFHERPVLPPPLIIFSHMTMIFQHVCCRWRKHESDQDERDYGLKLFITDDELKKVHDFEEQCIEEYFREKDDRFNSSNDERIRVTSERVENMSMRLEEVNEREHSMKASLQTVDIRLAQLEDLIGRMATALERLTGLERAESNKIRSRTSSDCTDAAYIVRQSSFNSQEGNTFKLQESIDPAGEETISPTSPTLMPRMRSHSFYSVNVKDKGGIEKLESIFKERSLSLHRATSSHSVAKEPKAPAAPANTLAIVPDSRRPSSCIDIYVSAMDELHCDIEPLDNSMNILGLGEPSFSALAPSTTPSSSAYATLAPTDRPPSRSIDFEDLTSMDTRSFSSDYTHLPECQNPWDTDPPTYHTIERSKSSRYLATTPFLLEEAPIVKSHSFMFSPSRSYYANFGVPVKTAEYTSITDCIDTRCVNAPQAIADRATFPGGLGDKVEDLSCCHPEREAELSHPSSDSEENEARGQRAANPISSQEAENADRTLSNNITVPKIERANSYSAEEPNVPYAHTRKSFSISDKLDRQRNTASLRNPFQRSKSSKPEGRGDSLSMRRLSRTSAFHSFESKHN
# Biological target: mouse TRPM3α2 (mTRPM3) ion channel (Mus musculus, UniProt J9SQF3)
# Test: TRPM3 ion channel driven Ca2+ uptake, Fluo-4 AM assay, stimulated with pregnenolone sulfate (50 μM)
# Conditions: TRPM3 overexpressing flip-in HEK293 cells, PS 50 μM, 2.4 mM Ca2+
# Method: In order to monitor the inhibition of the mouse TRPM3α2 (mTRPM3) ion channel by the compounds of the invention, a cellular system making use of an mTRPM3alpha2 or hTRPM3 overexpressing cell line (flip-in HEK293) was used. The TRPM3 channel was stimulated/opened with Pregnenolone sulfate (PS) (50 μM) which results in Ca^2+ influx.
# For mTRPM3, the intracellular Ca^2+ was measured with a Calcium responsive dye, Fluor-4 AM ester (Invitrogen). Cells were cultured until a confluence of 80-90%, washed with Versene (Invitrogen) and detached from the surface by a short incubation with 0.05% Trypsin (Invitrogen). The […] was stopped by the addition of complete cell culture medium (DMEM, glutamax, 10% FCS, NEAA, Pen-Strep). Cells were collected and resuspended in Krebs buffer without Calcium at RT.
# Prior the cell seeding (±2000 cells/well into a black, 384 well plate (Greiner)) the diluted compound was added in the assay plate, together with the PS dissolved in Krebs buffer containing Calcium. […] Directly after cell addition the plates were read on an Envision fluorescence reader (Perkin Elmer) by an Excitation of 485 nm and emission at 535 nm.
# Channel inhibition was calculated compared to a non-PS stimulated control versus a condition stimulated with PS (50 μM) with vehicle. The ability of the compounds of the invention to inhibit this activity was determined as: Percentage inhibition=[1−((RFU determined for sample with test compound present−RFU determined for sample with positive control inhibitor) divided by (RFU determined in the presence of vehicle−RFU determined for sample with positive control inhibitor))]*100.
# The activities of the Example compounds cpd 001-091 tested are depicted in the table below. All tested compounds show an activity in the Fluo-4 AM assay. The activity ranges A, B and C refer to IC50 values in the Fluo-4 AM assay as follows: “A”: IC50<1 μM; “B”: 1 μM≤IC50≤20 μM and “C”: IC50>20 μM.
row,IC50,Compound
1,1 to 20 µM,"Cc1nn2ccc(OCc3ccccn3)cc2c1C(=O)NC(CO)CC(F)(F)F (single isomer, unassigned) [Cpd 062 - En1]"
2,> 20 µM,"Cc1nn2ccc(OCc3ccccn3)cc2c1C(=O)NC(CO)CC(F)(F)F (single isomer, unassigned) [Cpd 062 - En2]"
3,> 20 µM,"Cc1nn2ccc(OCc3ccccn3)cc2c1C(=O)NC(CO)CC(F)F (single isomer, unassigned) [Cpd 064 - En2]"
4,> 20 µM,"Cc1nn2ccc(OCc3ccccn3)cc2c1C(=O)NCC(O)CC(F)(F)F (single isomer, unassigned) [Cpd 081 - En1]"
5,1 to 20 µM,"Cc1nn2ccc(OCc3ccccn3)cc2c1C(=O)NCC(O)CC(F)(F)F (single isomer, unassigned) [Cpd 081 - En2]"

# Continued, compound first:
row,Compound,IC50
1,"Cc1nn2ccc(OCc3ccccn3)cc2c1C(=O)NC(CO)C(C(F)(F)F)C(F)(F)F (single isomer, unassigned) [Cpd 063 - En1]",> 20 µM
2,"Cc1nn2ccc(OCc3ccccn3)cc2c1C(=O)NC(CO)C(C(F)(F)F)C(F)(F)F (single isomer, unassigned) [Cpd 063 - En2]",< 1 µM
3,"Cc1nn2ccc(OCc3ccccn3)cc2c1C(=O)NC(CO)CC(F)F (single isomer, unassigned) [Cpd 064 - En1]",1 to 20 µM
4,"Cc1nn2ccc(OCc3ccccn3)cc2c1C(=O)NC1CNCC1C(F)(F)F (single isomer, unassigned) [Cpd 082 - En1]",1 to 20 µM
5,"Cc1nn2ccc(OCc3ccccn3)cc2c1C(=O)NC1CNCC1C(F)(F)F (single isomer, unassigned) [Cpd 082 - En2]",< 1 µM
6,"Cc1nn2ccc(OCc3ccccn3)cc2c1C(=O)NC(CO)c1ccn(C)n1 (single isomer, unassigned) [Cpd 087 - En1]",> 20 µM
7,"Cc1nn2ccc(OCc3ccccn3)cc2c1C(=O)NC(CO)c1ccn(C)n1 (single isomer, unassigned) [Cpd 087 - En2]",1 to 20 µM
8,"Cc1nn2ccc(OCc3ccccn3)cc2c1C(=O)NC(CO)Cc1ccccn1 (single isomer, unassigned) [Cpd 088 - En1]",1 to 20 µM
9,"Cc1nn2ccc(OCc3ccccn3)cc2c1C(=O)NC(CO)Cc1ccccn1 (single isomer, unassigned) [Cpd 088 - En2]",> 20 µM
10,"Cc1nn2ccc(OCc3ccccn3)cc2c1C(=O)NC1(CO)CCNC1=O (single isomer, unassigned) [Cpd 091 - En1]",< 1 µM
11,"Cc1nn2ccc(OCc3ccccn3)cc2c1C(=O)NC1(CO)CCNC1=O (single isomer, unassigned) [Cpd 091 - En2]",> 20 µM
